Data published in ChEMBL document CHEMBL1137231, “Efficient evaluation of binding free energy using continuum electrostatics solvation” (J Med Chem, 2004).

The chains behind the UniProt entries cited, without tags or fusion partners. Where a name states a change or a piece, a line headed by the entry shows the natural chain unless it says otherwise.
UniProt P56817: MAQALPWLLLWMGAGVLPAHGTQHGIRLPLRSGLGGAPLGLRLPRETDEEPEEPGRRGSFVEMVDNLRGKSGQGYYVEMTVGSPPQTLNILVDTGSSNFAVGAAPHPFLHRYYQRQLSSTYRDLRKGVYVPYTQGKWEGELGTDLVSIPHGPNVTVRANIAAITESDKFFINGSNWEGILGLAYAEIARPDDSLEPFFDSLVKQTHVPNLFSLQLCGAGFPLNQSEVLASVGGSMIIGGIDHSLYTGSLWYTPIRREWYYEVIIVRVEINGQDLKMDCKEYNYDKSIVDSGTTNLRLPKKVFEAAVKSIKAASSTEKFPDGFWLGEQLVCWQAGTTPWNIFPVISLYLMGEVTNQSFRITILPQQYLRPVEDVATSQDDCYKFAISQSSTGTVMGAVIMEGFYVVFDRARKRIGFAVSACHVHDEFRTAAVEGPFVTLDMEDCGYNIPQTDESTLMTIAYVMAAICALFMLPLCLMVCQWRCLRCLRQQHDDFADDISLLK

Target: Beta-secretase 1 (Homo sapiens, UniProt P56817)
Assay: Binding affinity towards Beta-secretase determined using continuum electrostatics solvation

| Ki [µM] | Compound |
| --- | --- |
| 10.5 | CSCCC(NC(=O)[C@@H](NC(=O)OC(C)(C)C)C(C)C)C(=O)N[C@@H](CC(C)C)C(O)CC(CC(C)C)C(=O)N[C@H](C(=O)NCc1ccccc1)C(C)C (some centres not stated) |
| 0.008 | CC(C)C[C@H](NC(=O)C(CCS(C)(=O)=O)NC(=O)[C@@H](NC(=O)OC(C)(C)C)C(C)C)C(O)CC(C)C(=O)N[C@H](C(=O)NCc1ccccc1)C(C)C (some centres not stated) |
